Measured values reported in PubChem BioAssay AID504332 (National Center for Advancing Translational Sciences (NCATS), 2011).
The list shows a part of the results, in another mix than the full data. Records with an inconclusive call do not appear. Entries that show only a call come without a potency. Activity calls are given as the source filed them. The call rests on the fitted dose curve; in most records, active means well fitted inhibition curve with a large enough effect; inconclusive means small, poorly fitted or top-dose-only effect; inactive means no such curve, though single readings can be large or run the other way.

Protein sequences, listed by entry. Tags and fused reporters are not part of them. Residues count along the entry.
UniProt Q96KQ7, 913-1193 limits assumed: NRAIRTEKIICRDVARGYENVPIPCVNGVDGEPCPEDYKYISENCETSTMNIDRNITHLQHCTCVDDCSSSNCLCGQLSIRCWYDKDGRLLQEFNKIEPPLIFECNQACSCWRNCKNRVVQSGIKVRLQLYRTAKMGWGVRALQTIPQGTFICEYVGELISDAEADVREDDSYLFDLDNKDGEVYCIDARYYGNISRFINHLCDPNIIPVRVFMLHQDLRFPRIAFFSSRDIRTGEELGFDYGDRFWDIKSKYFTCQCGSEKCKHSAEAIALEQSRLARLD

molecular target: Histone-lysine N-methyltransferase EHMT2 (Homo sapiens) (UniProt Q96KQ7); test: qHTS Assay for Inhibitors of Histone Lysine Methyltransferase G9a; details: G9a H3K9 monomethylation, AlphaScreen, 2 h; series mostly up to 102 µM; further: nearly all actives have a fitted effect of over 75% in size
Potency means the concentration at half of the fitted maximal effect.

SMILES	Potency	activity, negative = inhibition
CC(C)c1ccc(NC2CCN(C(=O)OC(C)(C)C)CC2)cc1	active: 28.2 µM	
CN(C)c1cccc(C(=O)NCC2(N3CCCCC3)CCCCC2)c1	inactive	
COc1cc(OC)c(C(=O)NCC2(N(C)C)CCCCC2)cc1OC	inactive	
O=C(NCC1(N2CCCCC2)CCCCC1)c1cncc(Br)c1	inactive	
CCCCOc1ccccc1C(=O)NCC1(N2CCOCC2)CCCCC1	inactive	
CCCOc1ccc(C(=O)NCC2(N(C)C)CCCCC2)cc1OC	inactive	
O=C(NCC1(N2CCOCC2)CCCCC1)c1ccccc1Br	inactive	
O=C(NCC1(N2CCCCC2)CCCCC1)c1ccc(OC(F)F)cc1	inactive	
CCN1CCC(Nc2ccc(Cl)cc2)CC1	active: 79.4 µM	
O=C(NCC1(N2CCCCC2)CCCCC1)c1cccc([N+](=O)[O-])c1	inactive	
CCOc1ccc(C(=O)NCC2(N3CCOCC3)CCCCC2)cc1	inactive	
CSc1ccc(C(=O)NCC2(N3CCOCC3)CCCCC2)cc1	inactive	
O=[N+]([O-])c1cc([N+](=O)[O-])c(NCC2CCS(=O)(=O)C2)c([N+](=O)[O-])c1 (configuration not stated)	inactive	
CCCOc1cccc(C(=O)NCC2(N3CCOCC3)CCCCC2)c1	inactive	
O=C(NCC1(N2CCCCC2)CCCCC1)c1cccc(C(F)(F)F)c1	inactive	
COc1cc(C(=O)NCC2(N3CCCCC3)CCCCC2)ccc1OC(F)F	inactive	
O=C(NCC1(N2CCOCC2)CCCCC1)c1cc(=O)[nH]c2ccccc12	inactive	
CN1CCN(CCOC(=O)C(O)(c2ccccc2)c2ccccc2)CC1	inactive	
COc1ccc(NC2CCN(C(=O)OC(C)(C)C)CC2)cc1	active: 3.55 µM	
CC(C)c1ccc(C(=O)NCC2(N3CCOCC3)CCCCC2)cc1	inactive	
O=C(NCC1(N2CCOCC2)CCCCC1)c1ccc(Cl)cc1	inactive	
COc1ccccc1C(=O)NCC1(N2CCOCC2)CCCCC1	inactive	
O=C(NCC1(N2CCCCC2)CCCCC1)c1ccc(F)cc1	inactive	

SMILES	Potency	activity, negative = inhibition
CCCCOc1ccc(C(=O)NCC2(N3CCOCC3)CCCCC2)cc1	inactive	
COc1ccc(NC2CCN(CCc3ccccc3)CC2)c(OC)c1	active: 10 µM	
CCOC(=O)N1CCC(Nc2ccc(F)cc2)CC1	inactive	
COc1cc(C(=O)NCC2(N(C)C)CCCCC2)ccc1OC(F)F	inactive	
Cc1ccc(OCC(C)C)c(CN(CCCl)CCCl)c1	active: 39.8 µM	
COc1ccc(C(=O)NCC2(N3CCCCC3)CCCCC2)c(OC)c1OC	inactive	
CC(C)(C)OC(=O)N1CCC(N(C(=O)c2ccccc2)c2ccc(F)cc2)CC1		inactive: -8% [at 2.33 µM]
O=C(NCC1(N2CCCCC2)CCCCC1)c1ccc(=O)[nH]c1	inactive	
O=C(NCC1(N2CCCCC2)CCCCC1)c1cccs1	active: 17.8 µM	
Cc1cc(C)cc(N(C(=O)c2ccccc2)C2CCN(C(=O)OC(C)(C)C)CC2)c1	inactive	
O=C(NCC1(N2CCOCC2)CCCCC1)c1cc2ccccc2o1	inactive	
O=C(OC1CN2CCC1CC2)C1c2ccccc2Oc2ccccc21 (configuration not stated)	inactive	
O=C(NCC1(N2CCCCC2)CCCCC1)c1ccc(Cl)s1	inactive	
N#CC1(Nc2ccccc2)CCN(Cc2ccccc2)CC1	inactive	
COc1ccc(Cl)cc1C(=O)NCC1(N2CCOCC2)CCCCC1	inactive	
CCOC(=O)N1CCC(Nc2ccc(OC)cc2)CC1	active: 11.2 µM	
CCOc1ncccc1C(=O)NCC1(N2CCOCC2)CCCCC1		inactive: -19.4% [at 12.7 µM]
CC(C)(C)OC(=O)N1CCC(Nc2ccccc2)CC1	inactive	
O=C(O)C1(Nc2ccccc2)CCN(Cc2ccccc2)CC1	inactive	
CCCOc1ccc(C(=O)NCC2(N(C)C)CCCCC2)cc1	inactive	
COc1cc(C(=O)NCC2(N3CCOCC3)CCCCC2)cc(OC)c1OC	inactive	
COc1cc(OC)cc(C(=O)NCC2(N3CCOCC3)CCCCC2)c1		inactive: -10.9% [at 0.0925 µM]
COc1cccc(C(=O)N(c2cc(C)cc(C)c2)C2CCN(C(=O)OC(C)(C)C)CC2)c1		inactive: 2.08% [at 2.33 µM]

SMILES	Potency	activity, negative = inhibition
CN1CCC(Nc2ccc(Cl)cc2)CC1	active: 50.1 µM	
CN(C)C1(CNC(=O)c2ccc(C(C)(C)C)cc2)CCCCC1	inactive	
COc1cc(OC)cc(C(=O)NCC2(N3CCCCC3)CCCCC2)c1	inactive	
Cc1ccc(C(=O)NCC2(N3CCCCC3)CCCCC2)o1	inactive	
CCN1CCC(Nc2cccc(F)c2)CC1	active: 50.1 µM	
Cc1ccccc1C(=O)NCC1(N(C)C)CCCCC1	inactive	
CC(C)(C)c1ccc(C(=O)NCC2(N3CCOCC3)CCCCC2)cc1	inactive	
O=C(NCC1(N2CCCCC2)CCCCC1)c1ccco1		inactive: 2.53% [at 12.7 µM]
N#Cc1ccc(C(=O)NCC2(N3CCCCC3)CCCCC2)cc1	active: 50.1 µM	
O=C(NCC1(N2CCOCC2)CCCCC1)c1ccccc1[N+](=O)[O-]	inactive	
CC(C)(C)OC(=O)N1CCC(N(C(=O)c2ccccc2)c2ccc(Cl)cc2)CC1	inactive	
O=C(NCC1(N2CCOCC2)CCCCC1)c1ccc([N+](=O)[O-])cc1	inactive	
CCOC(=O)C(CC)C1=NC(C)(C)Cc2ccccc21.O=[N+]([O-])c1cc([N+](=O)[O-])c(O)c([N+](=O)[O-])c1 (configuration not stated)	inactive	
CN(C)C1(CNC(=O)c2cccc(C#N)c2)CCCCC1	inactive	
c1ccc(CN2CCC(Nc3ccccc3)CC2)cc1	active: 79.4 µM	
O=C(NCC1(N2CCOCC2)CCCCC1)c1ccccc1	inactive	
O=C(NCC1(N2CCOCC2)CCCCC1)c1cc(Br)ccc1Cl		inactive: 19.2% [at 12.7 µM]
COc1ccc(C(=O)NCC2(N3CCOCC3)CCCCC2)cc1OC	inactive	
O=C(OC1CN2CCC1CC2)C1c2ccccc2C=Cc2ccccc21 (configuration not stated)	inactive	
CCc1cc(C(=O)NCC2(N3CCCCC3)CCCCC2)sc1C	inactive	
O=C(O)c1cccc(Nc2c([N+](=O)[O-])cc([N+](=O)[O-])cc2[N+](=O)[O-])c1	inactive	
